Assay results: ChEMBL document CHEMBL5046283, “Design, Synthesis, and Biological Evaluation of the First Inhibitors of Oncogenic CHD1L” (J Med Chem, 2022)

Key:
[1] = in vivo; details: CD-1, mouse, plasma, ip, 50 mg/kg
[2] = in vivo; details: CD-1, mouse, liver, ip, 50 mg/kg
[3] = in vivo; details: CD-1, mouse, fat tissue, ip, 50 mg/kg

Measured: half-life

Cc1cc(Nc2ccc(NC(=O)Cc3cc(Br)cs3)cc2)nc(N2CCCC2)n1
480 min: all assays above
